# Reference: patent US20070059272A1 (priority 2005, published 2007)
# Legend:
# [1] = system: membrane fractions of P. aeruginosa (PAO1); test: ELISA binding to membrane fractions and solubilized membrane proteins of P. aeruginosa PAO1; parameters: species or system Pseudomonas aeruginosa; settings: human cytokines
# [2] = system: rhlI transcription in PAO1; test: Northern blot of rhlI gene expression in PAO1; assay type: cell-based, Pseudomonas aeruginosa
Substance,binding to P. aeruginosa cell membranes [1],rhlI transcription [2]
IL-2: human cytokine,No binding,
TNF-α: tumor necrosis factor alpha,No binding,but not
